The compounds below were run against T1, Kv1.5 channels from humans (Homo sapiens, UniProt P22460) (assay: Kv1.5 currents in Xenopus oocytes, two-microelectrode voltage clamp).
T1 construct: expressed in transfected cells; host or cells: Xenopus laevis oocytes injected with in vitro synthesized RNA
Assay type: cell-based
Method: Kv1.5 channels from humans were expressed in Xenopus oocytes. For this, oocytes from Xenopus laevis were first isolated and defolliculated. RNA encoding Kv1.5 synthesized in vitro was then injected into these oocytes. After Kv1.5 protein expression for 1-7days, Kv1.5 currents were measured on the oocytes using the two-microelectrode voltage clamp technique. The Kv1.5 channels were in this case as a rule activated using voltage jumps to 0 mV and 40 mV lasting 500 ms. The bath was rinsed with a solution of the following composition: NaCl 96 mM, KCl 2 mM, CaCl2 1.8 mM, MgCl2 1 mM, HEPES 5 mM (titrated with NaOH to pH 7.4). These experiments were carried out at room temperature. The following were employed for data acquisition and analysis: Genedamp amplifier (Axon Instruments, Foster City, USA) and MacLab D/A converter and software (AD Instruments, Castle Hill, Australia). The substances according to the invention were tested by adding them in different concentrations to the bath solution. The effects of the substances were calculated as the percentage inhibition of the Kv1.5 control current which was obtained when no substance was added to the solution. The data were then extrapolated using the Hill equation in order to determine the inhibitory concentration IC50 for the respective substances.

Chains of the proteins cited; added tags and fusions are not shown.
UniProt P22460, whole entry: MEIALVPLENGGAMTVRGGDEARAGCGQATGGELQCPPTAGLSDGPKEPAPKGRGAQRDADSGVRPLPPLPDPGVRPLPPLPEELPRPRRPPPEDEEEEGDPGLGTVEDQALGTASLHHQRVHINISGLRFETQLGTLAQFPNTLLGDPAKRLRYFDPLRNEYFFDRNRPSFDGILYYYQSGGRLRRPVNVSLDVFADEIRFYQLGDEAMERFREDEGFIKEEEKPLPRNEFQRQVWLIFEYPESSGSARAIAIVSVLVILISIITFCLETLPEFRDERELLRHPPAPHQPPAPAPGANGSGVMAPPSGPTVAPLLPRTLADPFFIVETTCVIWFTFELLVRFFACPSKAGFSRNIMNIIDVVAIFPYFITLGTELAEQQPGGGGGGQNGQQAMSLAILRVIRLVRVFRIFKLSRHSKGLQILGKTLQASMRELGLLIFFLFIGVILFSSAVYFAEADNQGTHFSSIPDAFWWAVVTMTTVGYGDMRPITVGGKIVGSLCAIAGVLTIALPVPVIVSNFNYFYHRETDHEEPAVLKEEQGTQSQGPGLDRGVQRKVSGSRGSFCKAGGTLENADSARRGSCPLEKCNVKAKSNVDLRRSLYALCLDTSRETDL

| SMILES | IC50 |
| --- | --- |
| C[C@H](OC(=O)NCc1ccccc1-c1ccccc1C(=O)NCCc1ccccn1)c1ccccc1 [1 j] | 200 nM |
| C[C@@H](OC(=O)NCc1ccccc1-c1ccccc1C(=O)NCCc1ccccn1)c1ccccc1 [1 k] | 2400 nM |
| O=C(NCc1ccccc1-c1ccccc1C(=O)NCCc1ccccn1)OCc1ccccc1 [2 c] | 700 nM |
| COC(=O)NCc1ccccc1-c1ccccc1C(=O)NCCC(C)C [2 f] | 7100 nM |
| CC(C)CCNC(=O)c1ccccc1-c1ccccc1CNC(=O)c1ccccc1 [4 a] | 4100 nM |
| COc1ccc(CC(=O)NCc2ccccc2-c2ccccc2C(=O)NCc2ccc(F)cc2F)cc1 [4 c] | 1400 nM |
| COc1ccc(CC(=O)NCc2ccccc2-c2ccccc2C(=O)NCCc2cccnc2)cc1 [4 i] | 4700 nM |
